Consider one compound from BindingDB's records for doi:10.1021/jm991074s (University of Catania, 2000).

Amino acid sequences for entries named in this document (tags omitted).
UniProt P34972, whole entry: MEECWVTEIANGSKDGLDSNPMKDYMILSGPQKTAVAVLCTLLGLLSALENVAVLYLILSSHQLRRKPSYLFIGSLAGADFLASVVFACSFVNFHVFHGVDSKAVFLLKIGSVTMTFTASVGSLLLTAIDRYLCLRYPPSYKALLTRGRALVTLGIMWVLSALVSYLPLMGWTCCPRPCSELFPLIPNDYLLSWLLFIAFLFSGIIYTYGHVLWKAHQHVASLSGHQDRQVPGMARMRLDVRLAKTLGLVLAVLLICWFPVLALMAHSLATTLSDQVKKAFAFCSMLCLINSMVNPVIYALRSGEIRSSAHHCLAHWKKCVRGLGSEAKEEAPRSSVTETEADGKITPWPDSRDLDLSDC

This test addresses Cannabinoid receptor 2 (Homo sapiens, UniProt P34972). As to the kind of experiment: Binding affinity towards cloned human cannabinoid receptor 2.

What is called Ki is the equilibrium dissociation constant of an inhibitor or competing ligand from its target. A high value points to a looser hold on the target.

For the compound `C=C(C)[C@@H]1CCC(C)=C[C@H]1c1c(O)cc(CCCCC)cc1O`, the affinity, expressed as Ki, was 2.9 µM.
